Shown are actives, neighbours in structure and some others; about 1.5% of the full set was active somewhere.
PglD DTNB – blocks C. jejuni PglD acetyltransferase activity. purified PglD enzyme, DTNB colorimetric CoA detection. inhibition, % at 12.5 µM. actives 0.098% (n = 360,000); in the data active = inhibition above about 16%, passing the limit was not always enough
RAD52 inh – inhibitors of human RAD52 DNA annealing | recombinant RAD52 DNA annealing, FRET fluorescence | inhibition, % at 18.7 µM | actives 0.46% (n = 360,000);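 active = every replicate showing at least 50% inhibition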
CASP6 VEID inh – blocks human caspase-6 cleavage activity | actives 0.53% (n = 350,000) | inhibition, % at 12.5 µM | purified caspase-6, Z-VEID-R110 cleavage fluorescence | P55212;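 active = mean inhibition across replicates at least about 35%, with every replicate also reaching that limit, limit read from the data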;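 also: 0% = median of neutral control wells and 100% = no fluorescence left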
RAD54 branch – inhibitors of human RAD54 branch migration. Q92698. inhibition, % at 10.4 µM. RAD54 Holliday junction branch migration, FAM/BHQ fluorescence. actives 0.14% (n = 360,000);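 active = mean normalized replicate activity at least 40 and at least half of replicates scoring 40 or more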;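 also: 0% = median of neutral control wells and 100% = median of positive control wells; inhibitors cause a drop in the FAM fluorescence signal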
UUG fidelity – modulators of yeast start codon fidelity, primary screen, whole organism, S. cerevisiae, single point, plate reader; activity score, % at 18.7 µM; actives 0.13% (n = 350,000); S. cerevisiae UUG-firefly luciferase reporter, luminescence/redox ratio;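 active = replicate mean at a twofold rise or more, about +100% in these data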;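 also: firefly luciferase made from a UUG start codon reports start codon fidelity; reporter light over untreated wells divided by growth signal over untreated wells; some hits fall short of that in this replicate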
GSIS activator – GLuc luminescence reporter in INS-1E cells, primary screen for activators of glucose-dependent secretion of insulin. INS-1E GLuc reporter insulin secretion, 2-3 h. activation, % at 16.6 µM. actives 0.61% (n = 370,000). AID 743287;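 active = lowest replicate activation of at least 40%, so every replicate reaches that level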;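 also: 0% = median of neutral control wells and 100% = median of IBMX positive control wells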
* marks the source's active call; other numbers are inactive results; / = no result given.

Labels used below – A = PglD DTNB; B = RAD52 inh; C = CASP6 VEID inh; D = RAD54 branch; E = UUG fidelity; F = GSIS activator
SMILES: O=C(Nc1nnc(Cc2c[nH]c3ccccc23)s1)c1ccc(Cl)cc1Cl
  A: /	B: -10	C: 58*	D: /	E: /	F: 1
SMILES: CC(C)(C)c1ccc(C(=O)Nc2nnc(Cc3c[nH]c4ccccc34)s2)cc1
  A: 0	B: /	C: /	D: -1	E: -9	F: -13
SMILES: C#CCOCCOCCOCCNc1nc(N2CCN(C(=O)Cn3cc(CCCCN)nn3)CC2)nc(N2CCN(C(=O)[C@H](Cc3ccc(O)cc3)n3cc(CCO)nn3)CC2)n1
  A: 3	B: 12	C: -17	D: -13	E: -2	F: -5
SMILES: O=C(O)C1Nc2c(O)cc(Cl)c([N+](=O)[O-])c2C2C=CCC12 (configuration not stated)
  A: /	B: 3	C: 98*	D: /	E: /	F: -22
SMILES: Cn1c(COc2ccccc2O)[n+](C)c2ccccc21
  A: 5	B: 1	C: -2	D: 3	E: -23	F: 8
SMILES: CCCCCCCCCCOC(=O)Cn1c(COc2ccccc2OC)[n+](C)c2ccccc21
  A: -11	B: 75*	C: -42	D: 42	E: -8	F: 179*
SMILES: O=C(COC(=O)c1ccccc1OCc1ccccc1Cl)NC1CCS(=O)(=O)C1 (configuration not stated)
  A: 0	B: -7	C: 61*	D: 5	E: 2	F: -4
SMILES: COc1ccc(NC(=O)N2CCCCN3[C@@H](CO)[C@H](c4ccc(-c5ccccc5F)cc4)[C@@H]3C2)cc1
  A: 3	B: 60*	C: 2	D: 4	E: 9	F: -19
SMILES: COc1ccc(NC(=O)N2CCCCN3[C@@H](CO)[C@@H](c4ccc(-c5ccccc5F)cc4)[C@@H]3C2)cc1
  A: 2	B: 65*	C: 2	D: 20	E: 4	F: -17
SMILES: COc1ccc(CC(=O)O/N=C(\N)c2ccccc2)cc1OC
  A: 4	B: -16	C: -1	D: -19	E: -11	F: 51*
SMILES: COc1ccc(CC(=O)OCn2nnc3ccccc3c2=O)cc1OC
  A: /	B: -7	C: 0	D: /	E: /	F: 44*
SMILES: COc1ccc(CC(=O)OCN2C(=O)c3ccccc3C2=O)cc1
  A: 0	B: /	C: /	D: -5	E: -20	F: -1
SMILES: COc1ccc(CC(=O)OCN2C(=O)c3ccccc3C2=O)cc1OC
  A: -9	B: 5	C: 1	D: 18	E: -7	F: 62*
SMILES: CCCC/C=C/[C@H](c1ccccc1)[C@H](CO)Cc1cccnc1
  A: 2	B: 1	C: /	D: -9	E: -8	F: 104*
SMILES: CCCC/C=C/C(NC(=O)CCc1ccccc1)c1ccccc1 (configuration not stated)
  A: 2	B: -73	C: 1	D: -9	E: -3	F: -32

(cont.)
Labels used below – A = PglD DTNB; B = RAD52 inh; C = CASP6 VEID inh; D = RAD54 branch; E = UUG fidelity; F = GSIS activator
SMILES: COc1ccc(/C=N/Nc2ccc(C(F)(F)F)cc2[N+](=O)[O-])cc1
  A: /	B: /	C: /	D: /	E: /	F: 45*
SMILES: O=C(Nc1cc([N+](=O)[O-])ccc1N1CCCC1)c1ccco1
  A: /	B: -11	C: 4	D: /	E: /	F: 0
SMILES: CCN(c1ccccc1)c1cc2ccccc2c(=O)[nH]1
  A: -3	B: -6	C: 65*	D: 1	E: -74	F: 59
SMILES: CCN(CC)C(=O)c1sc(NC(=O)c2ccoc2C)c(C(=O)OC)c1C
  A: -2	B: /	C: /	D: -14	E: 6	F: /
SMILES: CCOC(=O)c1c(NC(=O)c2ccoc2C)sc(C(=O)N(C)C)c1C
  A: -3	B: /	C: /	D: -3	E: -17	F: 47*
SMILES: O=C(NC1CCN(Cc2ccccc2)CC1)c1ccccc1
  A: 0	B: -8	C: -5	D: 2	E: -9	F: 2
SMILES: O=C(NNC1CCN(Cc2ccccc2)CC1)c1ccccc1
  A: -5	B: -6	C: 3	D: -19	E: -15	F: 44*
SMILES: COc1cc(/C=C(\C(=O)O)c2ccc(S(=O)(=O)N3CCCC3)s2)ccc1OCCC(C)C
  A: 1	B: -40	C: 45*	D: -12	E: -5	F: -1
SMILES: CCCCOc1ccc(/C=C(\C(=O)O)c2ccc(S(=O)(=O)N3CCCC3)s2)cc1
  A: -1	B: -26	C: 9	D: -14	E: -9	F: 0
SMILES: Cc1cccc(/C=C(\C(=O)O)c2ccc(S(=O)(=O)N3CCCC3)s2)c1
  A: 3	B: -8	C: 52*	D: -1	E: -1	F: 12
SMILES: CCOc1ccccc1/C=C(\C(=O)O)c1ccc(S(=O)(=O)N2CCCCC2)s1
  A: 3	B: -4	C: 36*	D: -5	E: 9	F: /
SMILES: O=C(O)/C(=C\c1cccc(F)c1)c1ccc(S(=O)(=O)N2CCCC2)s1
  A: 2	B: -5	C: 57*	D: -9	E: 2	F: /
SMILES: COc1ccc(CCn2ccc(O)c(Cc3ccc(Cl)cc3)c2=O)cc1OC
  A: -15	B: -8	C: /	D: -3	E: -8	F: 30
SMILES: CCc1c(C)nc2c(-c3ccccc3)c[nH]n2c1=O
  A: 3	B: -4	C: 2	D: -4	E: 6	F: -18
SMILES: O=C(N/C=C/c1ccco1)NCc1ccccc1
  A: /	B: -50	C: 42*	D: /	E: /	F: -6

Later entries.
Labels used below – A = PglD DTNB; B = RAD52 inh; C = CASP6 VEID inh; D = RAD54 branch; E = UUG fidelity; F = GSIS activator
SMILES: O=C(/C=C/c1ccco1)NCc1ccc(F)cc1
  A: /	B: -11	C: 3	D: /	E: /	F: -49
SMILES: NS(=O)(=O)c1ccc(CNC(=O)/C=C/c2ccco2)cc1
  A: 4	B: -33	C: 36*	D: 3	E: 4	F: 18
SMILES: Cc1ccc(CCNC(=O)c2cc(C)nn2-c2ccccc2)cc1
  A: 10	B: -15	C: -2	D: -7	E: -19	F: 8
SMILES: CCOC(=O)c1c(-n2c(C)cc(C=O)c2C)sc2c1CCCC2
  A: /	B: -2	C: 0	D: /	E: /	F: -12
SMILES: Cc1ccc(C)n1-c1sc2c(c1C(=O)O)CCCC2
  A: /	B: -32	C: 52*	D: /	E: /	F: -4
SMILES: CC(C)n1nc(C(=O)Nc2ccccc2N2CCOCC2)c2ccccc2c1=O
  A: /	B: /	C: /	D: /	E: /	F: 120*
SMILES: CCOC(=O)CSc1ccc2nnc(CCNS(=O)(=O)c3ccccc3)n2n1
  A: /	B: -2	C: 0	D: /	E: /	F: -9
SMILES: O=c1nc2s/c(=C\c3ccc(-c4ccccc4[N+](=O)[O-])o3)c(=O)n2nc1-c1ccccc1
  A: /	B: -43	C: 39*	D: /	E: /	F: -6
SMILES: CCCCCOc1ccc(/C=c2\sc3nc(=O)c(-c4ccccc4)nn3c2=O)cc1OC
  A: /	B: -36	C: -1	D: /	E: /	F: /
SMILES: C[C@@H](NC(=O)[C@@H]1N[C@@H]2c3ccc(C4=CCCC4)c(=O)n3C[C@@H]2[C@H]1CO)c1ccccc1
  A: -2	B: -82	C: -2	D: -4	E: /	F: -8
SMILES: Cc1nc2c(nc1C)C(=O)c1ccccc1C2=O
  A: /	B: 10	C: 36*	D: /	E: /	F: -27
SMILES: CC(C)CC#Cc1ccc2c(c1)O[C@@H](CN(C)C(=O)NC(C)C)[C@@H](C)CN([C@@H](C)CO)S2(=O)=O
  A: -1	B: 34	C: -1	D: 9	E: 5	F: -20
SMILES: CCCn1c(C)cc(C)c(C#N)c1=O
  A: /	B: /	C: /	D: /	E: /	F: 43*
SMILES: Cc1cc(C)n(C)c(=O)c1C#N
  A: /	B: -5	C: -1	D: /	E: /	F: 11
SMILES: CCCCc1c(-c2ccccc2OC)ncn1Cc1ccc(C)cc1
  A: /	B: -10	C: 1	D: /	E: /	F: 66*

Remaining list, next part:
Labels used below – A = PglD DTNB; B = RAD52 inh; C = CASP6 VEID inh; D = RAD54 branch; E = UUG fidelity; F = GSIS activator
SMILES: CCCCc1c(-c2ccccc2OC)ncn1Cc1ccccc1C
  A: /	B: -2	C: 5	D: /	E: /	F: 186*
SMILES: NC(=O)Cn1cc(C(=O)C(=O)N2CCOCC2)c2ccccc21
  A: -2	B: -15	C: 45*	D: -20	E: -7	F: -7
SMILES: CN1CCN(C(=O)C(=O)c2cn(CC(=O)N3CCOCC3)c3ccccc23)CC1
  A: -2	B: 13	C: 1	D: 6	E: -2	F: 18
SMILES: O=C(NCc1ccco1)c1cnn2c1NC(c1ccc(Br)cc1)CC2C(F)(F)F (configuration not stated)
  A: -3	B: /	C: /	D: -2	E: 1	F: /
SMILES: C=CCn1c(N2CCCCCC2)nc2c1c(=O)n(C)c(=O)n2C
  A: -1	B: /	C: /	D: 3	E: -2	F: /
SMILES: C/C(Cl)=C\Cn1c(N2CCCC2)nc2c1c(=O)n(C)c(=O)n2C
  A: -3	B: -9	C: 1	D: -9	E: -14	F: 65*
SMILES: COc1ccccc1NC(=S)N1CCN(c2ncccn2)CC1
  A: 4	B: -8	C: 4	D: 2	E: -19	F: 29
SMILES: COc1ccc(Cc2nnc(NC(=O)c3ccccc3Cl)s2)cc1OC
  A: 2	B: -16	C: 0	D: -8	E: -7	F: -12

Structures listed so far that bear a hit mark in RAD52 inh.
SMILES | PglD DTNB | RAD52 inh | CASP6 VEID inh | UUG fidelity | GSIS activator
CCCCCCCCCCOC(=O)Cn1c(COc2ccccc2OC)[n+](C)c2ccccc21 | -11 | 75* | -42 | -8 | 179*
COc1ccc(NC(=O)N2CCCCN3[C@@H](CO)[C@H](c4ccc(-c5ccccc5F)cc4)[C@@H]3C2)cc1 | 3 | 60* | 2 | 9 | -19
COc1ccc(NC(=O)N2CCCCN3[C@@H](CO)[C@@H](c4ccc(-c5ccccc5F)cc4)[C@@H]3C2)cc1 | 2 | 65* | 2 | 4 | -17
